From patent US20020048571A1, “Chimeric polypeptides of serum albumin and uses related thereto” (priority 1999, published 2002)

Assays:
[1] = test system: bovine capillary endothelial cells (BCE); assay: BCE proliferation assay with purified MSA-peptide fusion proteins (CyQUANT); assay type: cell-based; details: FGF-stimulated (1 ng/ml), 72 h
Excerpt: (§1) Inhibition of BCE and HUVEC proliferation by serum albumin-EC binding peptide fusions. […] In the MSA-peptide fusions the peptide sequence was inserted into a cysteine constrained loop between amino acids 53 and 62. The proteins were produced by COS-7 cells that were transfected with expression plasmids that directed the synthesis and secretion of the particular recombinant protein. […] In MSA-1H5 and MSA-myc constructs (negative control), the peptides were inserted into the loop at amino acid glu57. FIGS. 6 and 7 show the inhibitory effect of the purified proteins on the proliferation of BCE and HUVEC cells that were stimulated by FGF.
The transfected COS7-L cells were cultured in defined serum-free media (VP-SFM). […] The concentration of the albumin proteins was determined by Western blot analysis of each preparation using a rabbit anti-MSA antibody and using purified MSA of known concentration to generate a standard curve. Following development of the blot and exposure to film the autoradiographs were analyzed using the Gel Doc 1000 image analysis system and Molecular Analyst software (BioRad). […]
After the 72 h incubation, the media was removed, and the plates were washed twice with PBS and frozen at −80° C. Proliferation of the BCE cells was assessed using the CyQUANT® cell proliferation assay kit according to the manufacturer's recommendations.

[2] = test system: human umbilical vein endothelial cells (HUVECs); assay: HUVEC proliferation assay with purified MSA-peptide fusion proteins; assay type: cell-based; details: FGF-stimulated
Excerpt: as §1
The transfected COS7-L cells were cultured in defined serum-free media (VP-SFM). Each day for 5 days, the conditioned media were collected from the cells, centrifuged to remove dead cells and other cellular debris, and then frozen. […] The concentration of the albumin proteins was determined by Western blot analysis of each preparation using a rabbit anti-MSA antibody and using purified MSA of known concentration to generate a standard curve. Following development of the blot and exposure to film the autoradiographs were analyzed using the Gel Doc 1000 image analysis system and Molecular Analyst software (BioRad).

In the case of “MSA: full-length mouse serum albumin (negative control)”, the “inhibition of BCE proliferation (active range / effect in words)” value [1] was “did not significantly affect” and the “inhibition of HUVEC proliferation (active range / effect in words)” value [2] was “did not significantly affect”.
